The values below come from US6500824B1, “Kappa (OP2) opioid receptor antagonists” (Regents of the University of Minnesota, priority 1998, dated 2002).

Amino acid sequences for entries named in this document (tags omitted).
UniProt P33535, whole entry K303E: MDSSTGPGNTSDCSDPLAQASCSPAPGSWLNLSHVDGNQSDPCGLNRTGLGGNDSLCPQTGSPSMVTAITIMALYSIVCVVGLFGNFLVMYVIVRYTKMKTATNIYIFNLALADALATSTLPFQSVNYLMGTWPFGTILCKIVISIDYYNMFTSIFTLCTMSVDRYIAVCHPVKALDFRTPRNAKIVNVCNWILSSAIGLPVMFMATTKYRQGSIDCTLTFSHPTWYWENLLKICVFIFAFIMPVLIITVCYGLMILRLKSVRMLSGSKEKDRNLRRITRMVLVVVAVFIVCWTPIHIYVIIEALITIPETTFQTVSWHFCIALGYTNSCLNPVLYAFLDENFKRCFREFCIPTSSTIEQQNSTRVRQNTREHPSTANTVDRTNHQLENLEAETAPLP
UniProt P33535, whole entry: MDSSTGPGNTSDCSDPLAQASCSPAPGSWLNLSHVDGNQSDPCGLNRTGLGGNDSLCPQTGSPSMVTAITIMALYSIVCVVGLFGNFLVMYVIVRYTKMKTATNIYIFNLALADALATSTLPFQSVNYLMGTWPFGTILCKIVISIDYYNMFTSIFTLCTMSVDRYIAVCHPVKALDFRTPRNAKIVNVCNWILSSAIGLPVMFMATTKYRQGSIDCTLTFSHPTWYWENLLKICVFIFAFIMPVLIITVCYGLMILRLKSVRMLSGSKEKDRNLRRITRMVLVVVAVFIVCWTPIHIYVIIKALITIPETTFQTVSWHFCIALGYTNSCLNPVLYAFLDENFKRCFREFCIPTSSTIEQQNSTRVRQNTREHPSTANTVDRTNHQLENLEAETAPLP

One experiment deals with T1, μ[K303E] receptor (Rattus norvegicus, UniProt P33535, K303E).
T1 construct: expressed in transfected cells; host or cells: COS-7 (per the earlier reading)
The experiment is described as follows: Competition binding with [3H]diprenorphine, whole cell binding, COS-7 cells, μ[K303E]. Conditions: [3H]diprenorphine competition; COS-7 whole cell binding; read-out: Ki ± SEM, μ[K303E]. An excerpt: (§1) The effects of mutational exchange of Glu297 in the κ receptor and Lys303 in the μ receptor on the binding affinity of representative compounds of the invention were examined using techniques known in the art.

The next experiment addresses T2, wt μ receptor (Rattus norvegicus, UniProt P33535).
T2 construct: expressed in transfected cells; host or cells: COS-7 (per the earlier reading)
The experiment is described as follows: Competition binding with [3H]diprenorphine, whole cell binding, COS-7 cells, wt μ. The conditions noted are these: [3H]diprenorphine competition; COS-7 whole cell binding; read-out: Ki ± SEM, wt μ.
From the text: as §1

As for `Oc1ccc2c3c1O[C@H]1c4[nH]c5c(c4C[C@@]4(O)[C@@H](C2)N(CC2CC2)CC[C@]314)C[C@@]1(O)[C@H]2Cc3ccc(O)c4c3[C@@]1(CCN2CC1CC1)[C@H]5O4` [nor-BNI, norbinaltorphimine, reference compound], the Ki came to 0.77 ± 0.13 nM on μ[K303E] receptor and 102 ± 10.2 nM at wt μ receptor.
